According to patent US20040209930A1, “Synergistic methods and compositions for treating cancer” (priority 2002, published 2004):

System: GEO human colon carcinoma xenografts
Format: in vivo

## cetuximab
Single agent cetuximab at its optimal dose of 0.25 mg/mouse, ip, q3dx6, nude mice, advanced-stage GEO xenografts
  tumor growth delay (TGD): 14.5 days
Single agents, inhibiting tumor growth/progression and causing tumor growth delay
  antitumor activity as monotherapy: significant antitumor activities
